Experimental data reported in article PMC6541264, “Molecular mechanisms involved in drug-induced liver injury caused by urate-lowering Chinese herbs: A network pharmacology study and biology experiments” (PLoS ONE, 2019).

What was measured:
L-02 cells [1] = assay: MTT assay, cell viability of L-02 cells; type: cell-based, human; settings: for cells viabilityrate: L-02, MTT, 24 h
Experimental: (§1) The normal hepatic cell (L02) cell lines were obtained from the National Infrastructure of Cell Line Resources (Chinese Academy of Medical Sciences, Beijing, China), and maintained in Dulbecco’s modified Eagle’s medium (DMEM, 10-013-CVR) supplemented with 10% fetal bovine serum (FBS, Hyclone), 1% penicillin and streptomycin (PS, 100 IU/ml penicillin, 100 μg/ml streptomycin, Mediatech, 30-002-CI). All cells were incubated in a humidified atmosphere at 37°C with 5% CO2.
L-02 cells were trypsinized by 0.25% trypsin after reaching the confluence of 70–80% and plated in 96-well plates at the density of 1.6 × 10^3 […]. And L-02 cells were cultured for 24 hours in vitro before exposure to varying concentrations of different representative compounds with liver injury for further incubating in another 24 hours. Then, 20 μl of 0.25 mg/ml3-(4,5-dimethylthiazol-2-yl)-2,5-diphenyltetrazolium bromide (MTT)-tetrazolium salts (Sigma-Aldrich Corp., St. Louis, MO, USA) in PBS was added to each hole in 96-well plates. After 4 hours of incubation, the formazan crystals were dissolved by 150μl Dimethyl Sulphoxide (DMSO), and shocked to dissolve thoroughly, then the cell viability was measured by MTT method at 570 nm. All experiments were repeated in triplicate independently.

L-02 cells [2] = assay: Biochemical indicators of hepatotoxicity (ALT, AST, LDH, ALP activity) of L-02 cells, without and with p38 inhibitor SB203580; type: cell-based, human
Experimental: as §1
To determine how potential liver injury-compounds affected biochemical indicators of L-02 cells, we investigated the activities of AST, ALT, LDH and ALP in cell migration capacity under the different representative compounds conditions (representative compounds group), the inhibitor conditions (inhibitor group), and the negative control. For these experiments, three replicates were made for each concentration of the different representative compounds with liver injury, and each group was established three holes and cultured in 6 times repeatedly. L02 cells were settled into 24-well plate at concentrations of 1.6 × 10^3 per well for 24h and then treated with the concentrations that had been determined by MTT method of the representative candidate liver injury compounds for another 24 h. Subsequently, the supernatant extraction of L02 cells was collected and centrifuged to detect the activities of AST, ALT, LDH, and ALP by chromatometry method.
To further and fully elucidating the mechanism of the liver injury caused by the representative compounds from urate-lowering Chinese herbs, we chose the p38α inhibitor, SB203580 to verify our findings. Seemingly, the ALT, AST, ALP, and LDH activities of each group decreased to varying degrees under the influence of inhibitor. The specific composition information was shown in S2 Table. […] The Specific specific composition information is was shown in S4 Table.

[3] = S2 Table, L-02, 5μmol/L+inhibitor (SB203580)
[4] = S2 Table, L-02, 5μmol/L, no inhibitor
[5] = S2 Table, L-02, 6μmol/L, no inhibitor
[6] = S2 Table, L-02, 7μmol/L+inhibitor (SB203580)
[7] = Table 5, L-02 supernatant, 24 h, 5μmol/L
[8] = Table 5, L-02 supernatant, 24 h, 6μmol/L
[9] = Table 5, L-02 supernatant, 24 h, 7μmol/L

Question: For Evodiamine, which cells viabilityrate (L-02 cells [1]; 5 μmol/L) is on record?
Answer: The cells viabilityrate was 85.02± 15.70%.

Question: And the cells viabilityrate (L-02 cells [1]; 6 μmol/L)?
Answer: Its cells viabilityrate is 50.70± 37.42%.

Question: And the cells viabilityrate (L-02 cells [1]; 7 μmol/L)?
Answer: Its cells viabilityrate is 66.87± 11.58%.

Question: What about the “cell viability of L-02 (MTT), in words” value (L-02 cells [1]; dose of 5μmol/L) of the same substance?
Answer: Its value is “good potency inhibitor against the cell viability”.

Question: And the ALP (L-02 cells [2]; [3])?
Answer: Its ALP is 0.44±0.14 King's unit /100ml.

Question: What about the AST (L-02 cells [2]; [3]) of the same substance?
Answer: The AST was 7.11±0.67 U/L.

Question: What about the LDH (L-02 cells [2]; [3]) of the same substance?
Answer: Its LDH is 689.32±39.64 U/L.

Question: And the ALP (L-02 cells [2]; [4])?
Answer: Its ALP is 0.56± 0.14 King's unit /100ml.

Question: And the ALT (L-02 cells [2]; [4])?
Answer: The ALT was 15.54± 0.25 U/L.

Question: What about the AST (L-02 cells [2]; [4]) of the same substance?
Answer: Its AST is 7.28± 0.12 U/L.

Question: What about the LDH (L-02 cells [2]; [4]) of the same substance?
Answer: Its LDH is 681.23± 16.02 U/L.

Question: What about the ALT (L-02 cells [2]; S2 Table, L-02, 6μmol/L+inhibitor (SB203580)) of the same substance?
Answer: The ALT was 16.42±0.45 U/L.

Question: And the ALP (L-02 cells [2]; [5])?
Answer: Its ALP is 0.62±0.19 King's unit /100ml.

Question: And the ALT (L-02 cells [2]; [5])?
Answer: The ALT was 16.42±0.66 U/L.

Question: What about the AST (L-02 cells [2]; [5]) of the same substance?
Answer: The AST was 7.02±0.64 U/L.

Question: And the LDH (L-02 cells [2]; [5])?
Answer: Its LDH is 614.89±37.46 U/L.

Question: And the ALP (L-02 cells [2]; [6])?
Answer: Its ALP is 0.70±0.10 King's unit /100ml.

Question: What about the LDH (L-02 cells [2]; [6]) of the same substance?
Answer: The LDH was 726.54±47.95 U/L.

Question: What about the ALP (L-02 cells [2]; [7]) of the same substance?
Answer: Its ALP is 15.54±0.25 King's unit /100ml.

Question: And the ALT (L-02 cells [2]; [7])?
Answer: Its ALT is 7.07±0.38 U/L.

Question: And the AST (L-02 cells [2]; [7])?
Answer: Its AST is 658.98±40.96 U/L.

Question: What about the LDH (L-02 cells [2]; [7]) of the same substance?
Answer: The LDH was 0.50±0.16 U/L.

Question: What about the ALP (L-02 cells [2]; [8]) of the same substance?
Answer: Its ALP is 16.42±0.66 King's unit /100ml.

Question: What about the ALT (L-02 cells [2]; [8]) of the same substance?
Answer: Its ALT is 6.74±0.73 U/L.

Question: And the AST (L-02 cells [2]; [8])?
Answer: The AST was 597.09±44.76 U/L.

Question: What about the LDH (L-02 cells [2]; [8]) of the same substance?
Answer: Its LDH is 0.57±0.17 U/L.

Question: And the ALP (L-02 cells [2]; [9])?
Answer: The ALP was 16.42±0.87 King's unit /100ml.

Question: What about the ALT (L-02 cells [2]; [9]) of the same substance?
Answer: The ALT was 6.22±1.15 U/L.

Question: And the AST (L-02 cells [2]; [9])?
Answer: Its AST is 612.86±52.77 U/L.

Question: What about the LDH (L-02 cells [2]; [9]) of the same substance?
Answer: The LDH was 0.49±0.23 U/L.
